PubChem BioAssay (NCI)
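Results reflect a 48-hour exposure of cells in 96-well plates to compound at five concentrations. Here, GI50 denotes the concentration required for 50% inhibition of growth. TGI is the concentration that stops growth completely.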

Assays:
Experiment in all cases: NCI-60 cell line screen, 48 h
[1] = system: NCI-H322M lung
[2] = system: MCF7 breast
[3] = system: SK-MEL-28 melanoma
[4] = system: UACC-257 melanoma
[5] = system: SNB-75 CNS
[6] = system: SK-MEL-2 melanoma
[7] = system: T-47D breast
[8] = system: MALME-3M melanoma
[9] = system: CCRF-CEM leukemia
[10] = system: A549 NSCLC
[11] = system: SF-539 CNS
[12] = system: OVCAR-5 ovarian
[13] = system: SF-295 CNS
[14] = system: SN12C renal
[15] = system: HS 578T breast
[16] = system: MOLT-4 leukemia
[17] = system: A498 renal
[18] = system: UO-31 renal
[19] = system: M14 melanoma
[20] = system: HL-60(TB) leukemia
[21] = system: MDA-MB-435
[22] = system: LOX IMVI melanoma
[23] = system: OVCAR-8 ovarian
[24] = system: HCT-15 colon
[25] = system: SR leukemia
[26] = system: SF-268 CNS
[27] = system: 786-0 renal
[28] = system: MDA-N
[29] = system: COLO 205 colon
[30] = system: SNB-19 CNS
[31] = system: MDA-MB-231 breast
[32] = system: U251 CNS
[33] = system: OVCAR-3 ovarian
[34] = system: CAKI-1 renal
[35] = system: NCI-H23 lung
[36] = system: HOP-62 NSCLC
[37] = system: HT29 colon
[38] = system: HCT-116 colon
[39] = system: NCI-H460 lung
[40] = system: EKVX NSCLC
[41] = system: DU-145 prostate
[42] = system: UACC-62 melanoma
[43] = system: SW-620 colon
[44] = system: TK-10 renal
[45] = system: KM12 colon
[46] = system: NCI/ADR-RES ovarian
[47] = system: ACHN renal
[48] = system: NCI-H522 lung
[49] = system: RPMI-8226 leukemia
[50] = system: BT-549 breast
[51] = system: SK-MEL-5 melanoma
[52] = system: IGROV1 ovarian
[53] = system: SK-OV-3 ovarian
[54] = system: PC-3 prostate
[55] = system: K-562 leukemia
[56] = system: HOP-92 NSCLC

`ClCCN1CCCCC1CCl` (configuration not stated) was tested, and the GI50 [1] was over 100 µM, the TGI [1] was over 100 µM and the GI50 [2] was 48.2 µM. The TGI [2] was over 100 µM, the GI50 [3] was over 100 µM and the TGI [3] was over 100 µM. For the same compound, the GI50 [4] was over 100 µM, the TGI [4] was over 100 µM and the GI50 [5] was 81.7 µM. The TGI [5] was over 100 µM, the GI50 [6] was over 100 µM and the TGI [6] was over 100 µM. The GI50 [7] was 89.4 µM, the TGI [7] was over 100 µM and the GI50 [8] was 46.5 µM. The TGI [8] was over 100 µM, the GI50 [9] was 15 µM and the TGI [9] was over 100 µM. The GI50 [10] was 32.6 µM, the TGI [10] was over 100 µM and the GI50 [11] was 35.7 µM. It also gave a TGI [11] of over 100 µM, a GI50 [12] of over 100 µM and a TGI [12] of over 100 µM. It also gave a GI50 [13] of 35.9 µM, a TGI [13] of over 100 µM and a GI50 [14] of 9.84 µM. It also gave a TGI [14] of over 100 µM, a GI50 [15] of over 100 µM and a TGI [15] of over 100 µM. For the same compound, the GI50 [16] was 16.4 µM, the TGI [16] was over 100 µM and the GI50 [17] was over 100 µM. It also gave a TGI [17] of over 100 µM, a GI50 [18] of 67 µM and a TGI [18] of over 100 µM. For the same compound, the GI50 [19] was 44.2 µM, the TGI [19] was over 100 µM and the GI50 [20] was 24.8 µM. It also gave a TGI [20] of over 100 µM, a GI50 [21] of over 100 µM and a TGI [21] of over 100 µM. It also gave a GI50 [22] of 47.1 µM, a TGI [22] of over 100 µM and a GI50 [23] of over 100 µM. For the same compound, the TGI [23] was over 100 µM, the GI50 [24] was over 100 µM and the TGI [24] was over 100 µM. For the same compound, the GI50 [25] was 4.46 µM, the TGI [25] was 44.5 µM and the GI50 [26] was 40.7 µM. For the same compound, the TGI [26] was over 100 µM, the GI50 [27] was 22.3 µM and the TGI [27] was over 100 µM. For the same compound, the GI50 [28] was over 100 µM, the TGI [28] was over 100 µM and the GI50 [29] was over 100 µM. For the same compound, the TGI [29] was over 100 µM, the GI50 [30] was over 100 µM and the TGI [30] was over 100 µM. For the same compound, the GI50 [31] was over 100 µM, the TGI [31] was over 100 µM and the GI50 [32] was over 100 µM. For the same compound, the TGI [32] was over 100 µM, the GI50 [33] was over 100 µM and the TGI [33] was over 100 µM. It also gave a GI50 [34] of 24.9 µM, a TGI [34] of over 100 µM and a GI50 [35] of 32.1 µM. It also gave a TGI [35] of over 100 µM, a GI50 [36] of 43.5 µM and a TGI [36] of over 100 µM. For the same compound, the GI50 [37] was over 100 µM, the TGI [37] was over 100 µM and the GI50 [38] was over 100 µM. It also gave a TGI [38] of over 100 µM, a GI50 [39] of 46.8 µM and a TGI [39] of over 100 µM. The GI50 [40] was over 100 µM, the TGI [40] was over 100 µM and the GI50 [41] was 60.7 µM. The TGI [41] was over 100 µM, the GI50 [42] was 44.3 µM and the TGI [42] was over 100 µM. For the same compound, the GI50 [43] was over 100 µM, the TGI [43] was over 100 µM and the GI50 [44] was over 100 µM. The TGI [44] was over 100 µM, the GI50 [45] was over 100 µM and the TGI [45] was over 100 µM. It also gave a GI50 [46] of over 100 µM, a TGI [46] of over 100 µM and a GI50 [47] of 18.6 µM. The TGI [47] was over 100 µM, the GI50 [48] was 20.3 µM and the TGI [48] was over 100 µM. For the same compound, the GI50 [49] was 78.6 µM, the TGI [49] was over 100 µM and the GI50 [50] was 17.8 µM. It also gave a TGI [50] of over 100 µM, a GI50 [51] of over 100 µM and a TGI [51] of over 100 µM. For the same compound, the GI50 [52] was 38.2 µM, the TGI [52] was over 100 µM and the GI50 [53] was over 100 µM. The TGI [53] was over 100 µM, the GI50 [54] was over 100 µM and the TGI [54] was over 100 µM. It also gave a GI50 [55] of over 100 µM, a TGI [55] of over 100 µM and a GI50 [56] of 53.3 µM. It also gave a TGI [56] of over 100 µM.
